# Apparent affinities of Ab-95 variants for a coronavirus HR2 peptide

Values reported by Engelhart et al. 2022, doi:10.1038/s41597-022-01779-4 (FLAb copy).

Binding partner: SARS-CoV-2 spike HR2 peptide, sequence PDVDLGDISGINAS.

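Variants in AAYL52 differ from the parent at up to three CDR positions; double and triple changes were sampled at random. AlphaSeq pools MATa yeast showing the antibodies with MATalpha yeast showing the peptide. The frequency of each diploid, read from paired DNA barcodes, reflects how well the two displayed proteins bind. Scores were corrected for input abundance and mapped to Kd with protein pairs of known affinity run in the same pool. The assay was run in three technical replicates.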

The variants keep the heavy chain, the linker and the frameworks of Ab-95 (scFv order VH, three GGGGS repeats, VL).
VH: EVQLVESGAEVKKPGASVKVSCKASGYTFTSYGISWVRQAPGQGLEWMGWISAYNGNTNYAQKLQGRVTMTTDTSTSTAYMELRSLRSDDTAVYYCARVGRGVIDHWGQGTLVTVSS
VL: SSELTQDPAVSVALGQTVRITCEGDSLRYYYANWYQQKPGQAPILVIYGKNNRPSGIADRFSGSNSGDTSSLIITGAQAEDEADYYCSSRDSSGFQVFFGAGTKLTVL

Changes read parent residue, position, new residue, counted from the first residue of the VL shown.
Values are log10 of the apparent Kd in nM; lower means stronger binding.
"n.d." means that the variant was in the library but no mating with the target was seen in that replicate; the authors take this as a sign of poor binding, and no number exists.
In this assay the parent's reference entry averaged 2.31; its copy inside this library read 2.25.

changes	log10 Kd, replicates	control signals
N33Q+D91T+F95L	4.09 / 4.27 / n.d.	1 of 9 (3.40)
S89T+R90T+V97R	n.d. / n.d. / n.d.	3 of 9 (3.85)
R28V+K50L+N51H	3.24 / 4.21 / n.d.	1 of 9 (4.95)
P54C+S89P+S93C	n.d. / n.d. / n.d.	2 of 9 (3.85)
G24D+N51W+G94A	5.29 / n.d. / n.d.	5 of 9 (4.21)
D25M+D91F	n.d. / 3.88 / 3.48	2 of 9 (3.67)
Y31N+R90H+D91C	1.71 / 1.84 / 1.15	4 of 9 (4.14)
K50S+S88D+R90K	3.19 / 2.51 / 3.95	3 of 9 (3.01)
S89N+S93H+V97Q	2.39 / 3.28 / n.d.	0 of 9
N33M+K50M+N51G	n.d. / n.d. / n.d.	2 of 9 (3.73)
N33H+G49S+V97H	n.d. / 5.56 / n.d.	0 of 9
E23T+A32G+G49Y	4.44 / 4.75 / n.d.	3 of 9 (3.88)
N33P+S89R+S93T	4.28 / n.d. / n.d.	2 of 9 (4.13)
N52V+G94K+V97H	n.d. / n.d. / n.d.	2 of 9 (4.80)
S55Q+R90N+Q96M	n.d. / n.d. / 4.85	3 of 9 (4.56)
D91N+G94Y+Q96P	2.64 / n.d. / 3.44	0 of 9
S26C+N33A+N52I	4.43 / 3.42 / 2.79	6 of 9 (3.61)
S26K+R28A+S89K	n.d. / n.d. / 4.58	3 of 9 (3.60)
N33E+S88P+S89W	n.d. / n.d. / n.d.	0 of 9
Y30S+D91Y	4.18 / 3.28 / 2.93	1 of 9 (3.94)
Y29N	1.63 / 1.34 / 1.20	2 of 9 (4.40)
D25S+L27V+G94I	n.d. / n.d. / n.d.	0 of 9
S26N+G49K+N52A	n.d. / n.d. / n.d.	1 of 9 (2.63)
D25G+S55A+S88P	4.07 / n.d. / n.d.	1 of 9 (5.00)
S26D+F95K+V97A	3.56 / 4.60 / 3.46	4 of 9 (3.60)
D25F+Y29M+K50A	3.96 / 3.52 / 4.25	1 of 9 (4.02)
Y31D+N33Y+S93K	n.d. / 3.67 / n.d.	0 of 9
E23P+L27M+R28A	n.d. / 4.16 / 3.58	2 of 9 (4.33)
A32N+N51G+S55I	3.56 / 3.32 / 2.33	1 of 9 (4.26)
R28L+N51E+R90V	n.d. / 3.82 / n.d.	1 of 9 (4.37)
P54R+S93D+F98A	n.d. / n.d. / n.d.	1 of 9 (4.64)
D25A+R90Q+F98T	n.d. / 4.93 / n.d.	1 of 9 (4.67)
P54H+D91H+S93W	4.27 / 4.42 / n.d.	4 of 9 (3.86)
Y30F+K50A+Q96E	3.41 / 4.40 / 3.23	2 of 9 (3.05)
Y30C+G49V+K50N	2.92 / 4.66 / n.d.	2 of 9 (3.73)
L27A+R28Q+S93D	4.22 / n.d. / n.d.	5 of 9 (3.00)
G24M+N33T+R53Y	5.62 / n.d. / n.d.	1 of 9 (4.43)
R28I+Y29G+S89W	2.80 / 3.36 / 2.53	1 of 9 (3.66)
Y31Q+N51I+G94Y	2.67 / 2.94 / 4.10	2 of 9 (3.56)
N52A+S55I+D91T	3.32 / 3.32 / 3.63	6 of 9 (4.27)
G24F+D25Q	3.32 / 3.15 / 2.74	3 of 9 (3.58)
D25C+R28P+Y30L	3.72 / n.d. / n.d.	3 of 9 (4.27)
R28K+Y31I+F95E	2.95 / 2.55 / n.d.	2 of 9 (3.68)
G49M+R90W+F98Q	5.30 / 4.92 / 3.81	2 of 9 (4.70)
G49I+S88N+R90G	4.49 / 3.34 / n.d.	3 of 9 (3.81)

Excerpt, the first 7 entries:

changes	log10 Kd, replicates	control signals
N33Q+D91T+F95L	4.09 / 4.27 / n.d.	1 of 9 (3.40)
S89T+R90T+V97R	n.d. / n.d. / n.d.	3 of 9 (3.85)
R28V+K50L+N51H	3.24 / 4.21 / n.d.	1 of 9 (4.95)
P54C+S89P+S93C	n.d. / n.d. / n.d.	2 of 9 (3.85)
G24D+N51W+G94A	5.29 / n.d. / n.d.	5 of 9 (4.21)
D25M+D91F	n.d. / 3.88 / 3.48	2 of 9 (3.67)
Y31N+R90H+D91C	1.71 / 1.84 / 1.15	4 of 9 (4.14)

As a blank, each scFv also met three strains without target: over library AAYL52, 28% of these pairings were detected, typically at 3.91 and seldom below 2.90. The control count says in how many pairings with the empty strains this scFv gave a signal, with their mean in brackets.